Assay results taken from ChEMBL document CHEMBL5316318, “Structural Modification and Pharmacological Evaluation of Substituted Quinoline-5,8-diones as Potent NSD2 Inhibitors” (J Med Chem, 2023).

Experiment: Selectivity index, ratio of IC50 for EZH2 (unknown origin) to IC50 for human recombinant NSD2 (941 to 1240 residues)

Ratio IC50: 4
SMILES: CC#CC(=O)NC12CC(NC3=C(Cl)C(=O)c4cccnc4C3=O)(C1)C2
